Experimental data as given in patent publication US9814918B2, “Microbial deactivation of explosive compositions” (dated 2017).
Only a part of the results on these compounds is given; other tests are left out.

How the values were obtained:
[1] = tested on: Klebsiella pneumoniae BB6; experiment: Induction of nitroglycerin-degrading activity in Klebsiella pneumoniae BB6; conditions: 24 h in Luria Broth; 0.5 mM NEM, 0.5 mM MD, 1 mM DMFU, 4 mM DEME, DEMO, DMMO, 0.5 mM GTN, PETN, TNT; NADPH
[2] = tested on: Agrobacterium tumifaciens PD31; experiment: Induction of nitroglycerin-degrading activity in Agrobacterium tumifaciens PD31; conditions: 24 h in Luria Broth, 0.5 mM NEM, 0.25 mM MD, 1 mM DMFU, 4 mM DEME, DEMO, DMMO, 0.5 mM GTN, PETN, TNT; for nitroglycerin-degrading activity of cell-free extract: NADH
Escherichia coli DH5α = experiment: Induction of nitroglycerin-degrading activity in Escherichia coli DH5α (nitrite release by cell-free extracts); conditions: 24 h in Luria Broth; 0.25 mM NEM, 0.25 mM MD, 1 mM DMFU, 4 mM DEME, DEMO, DMMO, 0.5 mM GTN, PETN, TNT; NADPH
Pseudomonas sp. BB13 = experiment: Induction of nitroglycerin-degrading activity in Pseudomonas sp. BB13; conditions: 24 h in Luria Broth; 0.25 mM NEM, 0.5 mM MD, 1 mM DMFU, 4 mM DEME, DEMO, DMMO, 0.5 mM GTN, PETN, TNT; NADPH
[3] = tested on: Agrobacterium tumifaciens AGL-1; experiment: Induction of nitroglycerin-degrading activity in Agrobacterium tumifaciens AGL-1; conditions: 24 h in Luria Broth; 0.25 mM NEM, 0.125 mM MD, 1 mM DMFU, 4 mM DEME, DEMO, DMMO, 0.5 mM GTN, PETN, TNT; NADH
[4] = tested on: Gibberella moniliformis CD611; experiment: Induction of nitroglycerin-degrading activity in Gibberella moniliformis CD611
mixed soil culture = experiment: Induction of nitroglycerin-degrading activity in a mixed soil culture; conditions: 24 h in Luria Broth, 1% w/v soil slurry, 0.5 mM GTN, PETN, TNT, NEM, 0.25 mM MD, 1 mM DMFU, 4 mM DEME, 1 mM 3HC, TPBO, TBHQ, DMME; for nitroglycerin-degrading activity of cell-free extract: NADPH

| SMILES | nitroglycerin-degrading activity of cell-free extract [1] | nitroglycerin-degrading activity of cell-free extract [2] | nitroglycerin-degrading activity of cell-free extract (Escherichia coli DH5α) | nitroglycerin-degrading activity of cell-free extract (Pseudomonas sp. BB13) | nitroglycerin-degrading activity of cell-free extract [3] | growth of G. moniliformis CD611 in the presence of the compound ([4]; 0.5 mM TNT, 0.5 mM NEM, 0.25 mM MD, 1 mM 3HC, 29 h) | Fold-Induction relative to the control (mixed soil culture) | nitroglycerin-degrading activity of cell-free extract (mixed soil culture) | Fold-Induction relative to the control [2] | nitroglycerin-degrading activity of cell-free extract ([4]; 29 h in Luria Broth, 0.5 mM GTN, PETN, 1 mM DMFU, 4 mM DEME, 1 mM TPBO, TBHQ, DMME, NADPH) |
| --- | --- | --- | --- | --- | --- | --- | --- | --- | --- | --- |
| Cc1c([N+](=O)[O-])cc([N+](=O)[O-])cc1[N+](=O)[O-] | 0.22 U/g | 27 U/g | 3.4 U/g | <0.10 U/g | 3.8 U/g | Growth was inhibited | 0.81 fold | 0.49 U/g |  |  |
| O=[N+]([O-])OCC(CO[N+](=O)[O-])O[N+](=O)[O-] |  |  | 0.44 U/g |  | 0.10 U/g |  | 1.1 fold | 0.68 U/g | 1.0 fold |  |
| O=[N+]([O-])OCC(CO[N+](=O)[O-])(CO[N+](=O)[O-])CO[N+](=O)[O-] | <0.10 U/g | 12 U/g | 0.26 U/g | <0.10 U/g | 0.14 U/g |  | 0.63 fold | 0.38 U/g | 0.64 fold | <0.10 U/g |
